# AlphaSeq binding of Ab-95 light chain variants to a spike HR2 peptide

All variants were tested on one target, the spike HR2 peptide PDVDLGDISGINAS (SARS-CoV-2).

Ab-95 is the parent antibody, in scFv form: VH, then three GGGGS repeats, then VL. The heavy chain is unchanged in all variants.
VH: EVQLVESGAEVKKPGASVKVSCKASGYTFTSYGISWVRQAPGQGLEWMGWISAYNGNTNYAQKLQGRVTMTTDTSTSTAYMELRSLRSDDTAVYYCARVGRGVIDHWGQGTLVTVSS
VL: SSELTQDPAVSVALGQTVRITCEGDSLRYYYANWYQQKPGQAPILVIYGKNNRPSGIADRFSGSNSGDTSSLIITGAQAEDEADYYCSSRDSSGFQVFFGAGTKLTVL

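In library AAYL52, one, two or three CDR residues were substituted; doubles and triples were drawn at random. AlphaSeq pools MATa yeast showing the antibodies with MATalpha yeast showing the peptide. Binding brings cells together so that they mate, and sequencing counts the barcode pairs among the diploids. Scores were corrected for input abundance and mapped to Kd with protein pairs of known affinity run in the same pool. Each pool was mated in three replicate cultures.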

The parent's light chain CDRs are EGDSLRYYYAN, GKNNRPS, SSRDSSGFQVF; each variant's own CDRs replace them letter for letter.
Numbers give log10(Kd / nM), so 0 is 1 nM and 3 is 1 µM. Smaller is tighter.
A mean of the replicates is given; it leaves out those without a signal.
A pair that was not seen in any replicate is written "nd"; this usually means weak binding, but a binder can also be missed.

With EGDSLRYYYAN | GKNNRPS | QSRPSSWFQVF the result was 3.28 (1 of 3 replicates).
With EGRDLRYYYAN | GKNNRPS | SSRDISGFQVF the result was 2.53 (3 of 3 replicates).
With EWDSLRYYYAN | TRNNRPS | SSRDSSGFQVF the result was 4.18 (2 of 3 replicates).
With EGDSLRYYYAN | GKNNRPS | SSRISSGFTVF the result was 3.04 (3 of 3 replicates).
With EGDCLRMYYAY | GKNNRPS | SSRDSSGFQVF the result was 4.21 (2 of 3 replicates).
With EGDSLRYYYAN | GKNNRPS | SSRDKSGFQVH the result was 1.73 (3 of 3 replicates).
With EGDSLRYYYAN | GKNNTPS | YSRESSGFQVF the result was 4.33 (2 of 3 replicates).
With EGDSLRYLYAN | GQNNRPS | SSTDSSGFQVF the result was 3.16 (1 of 3 replicates).
With YGDSLRYYMAN | GKNNRPS | SSRDSSGCQVF the result was 4.95 (2 of 3 replicates).
With ENDSLRYYYAN | GKNNRPS | SSRCSSGFQVF the result was 4.78 (1 of 3 replicates).
With EGDSLRYYYEN | GKNNRPC | SSRDSSGFQVF the result was 3.40 (1 of 3 replicates).
With EPDSLRYYYFN | GKNNRPS | SSRASSGFQVF the result was 3.66 (2 of 3 replicates).
With EGDSLRYIYYN | GKNNRPS | SSRDSSNFQVF the result was 4.16 (3 of 3 replicates).
With EGPSFRYYYAI | GKNNRPS | SSRDSSGFQVF the result was 3.86 (1 of 3 replicates).
With EGDSLRCYYAN | GKNNRKS | VSRDSSGFQVF the result was 3.80 (2 of 3 replicates).
With ENDSLRYYYAN | GKYNRPW | SSRDSSGFQVF the result was 3.67 (2 of 3 replicates).
With MGHSLRYYYAN | GKNNRPS | SSRDSSVFQVF the result was 3.54 (3 of 3 replicates).
With QGDSLRYYYAN | GKNNRPS | SSRDGSGFQVW the result was 2.01 (3 of 3 replicates).
With EGDSLDYYYAN | GGNNRLS | SSRDSSGFQVF the result was 2.95 (3 of 3 replicates).
With EQDSLRYYLAN | GKNNRPS | QSRDSSGFQVF the result was nd (0 of 3 replicates).
With EHDSLRYYYAN | GKNLRPS | SSQDSSGFQVF the result was 3.37 (3 of 3 replicates).
With EGDSLRYYYAN | CKNNRPS | SSRDSSTFQCF the result was nd (0 of 3 replicates).
With EGDSLRYYYAP | GKNNRPS | SSRDSSAFQVF the result was nd (0 of 3 replicates).
With NGDSLRYYYAN | GKNNRPQ | SSRSSSGFQVF the result was 2.06 (3 of 3 replicates).
With EGDSLRYYYAN | GKNARPS | VSRDSSEFQVF the result was 3.96 (3 of 3 replicates).
With EGDSLRYHYAN | GKNTRPQ | SSRDSSGFQVF the result was 1.32 (3 of 3 replicates).
With EGDSLRYYYAN | GKNNRPT | SSRDSSGDQVF the result was 3.06 (3 of 3 replicates).
With EGDSLRYAYDN | GKNNRPS | SSRDSSGFQVF the result was nd (0 of 3 replicates).
With EGDSLRYYLAC | GKNNRPW | SSRDSSGFQVF the result was 4.80 (2 of 3 replicates).
With EGDSLLYYYAN | GKNNRPS | SSCDSSGFMVF the result was 4.18 (2 of 3 replicates).
With EGDSLRYYYAN | GKNNGPI | SSRDSSGFQVF the result was 4.10 (3 of 3 replicates).
With EGDSLRYYYAN | GGNIRPS | SSRDSSGFHVF the result was 2.23 (3 of 3 replicates).
With EGDSLRYYYAN | GCNNTPS | SSRDSSGFQVF the result was 4.25 (1 of 3 replicates).

The last 2 entries again:

CDR-L1	CDR-L2	CDR-L3	log10 Kd (nM), mean	seen in
EGDSLRYYYAN	GGNIRPS	SSRDSSGFHVF	2.23	3 of 3
EGDSLRYYYAN	GCNNTPS	SSRDSSGFQVF	4.25	1 of 3

Three control strains display no target. For library AAYL52, 28% of the pairings with them gave a signal, with a median of 3.91 and one signal in twenty below 2.90, so weak values seen in few replicates may be background.
In this assay the parent's reference entry averaged 2.31; its copy inside this library read 2.25.

Reference: Engelhart et al. 2022, doi:10.1038/s41597-022-01779-4. File: FLAb, binding data.